The assay addresses hen egg white lysozyme (Gallus gallus (hen), UniProt P00698). As to the kind of experiment: SPR.

B1: HyHEL-5 (antibody, V domains shown)
VH: EVQLQQSGAELMKPGASVKISCKASGYTFSDYWIEWVKQRPGHGLEWIGEILPGSGSTNYHERFKGKATFTADTSSSTAYMQLNSLTSEDSGVYYCLHGNYDFDGWGQGTTLTVSS
VL: DIVLTQSPAIMSASPGEKVTMTCSASSSVNYMYWYQQKSGTSPKRWIYDTSKLASGVPVRFSGSGSGTSYSLTISSMETEDAATYYCQQWGRNPTFGGGTKLEIK
B1 had a Kd of 0.025 nM, a koff of 0.00023 s⁻¹ and a kon of 9.5e+06 M⁻¹ s⁻¹.
